For orientation: inhibition means the relative decrease from the control value, in per cent.

Protein sequences, listed by entry. Tags and fused reporters are not part of them.
UniProt Q61009, whole entry: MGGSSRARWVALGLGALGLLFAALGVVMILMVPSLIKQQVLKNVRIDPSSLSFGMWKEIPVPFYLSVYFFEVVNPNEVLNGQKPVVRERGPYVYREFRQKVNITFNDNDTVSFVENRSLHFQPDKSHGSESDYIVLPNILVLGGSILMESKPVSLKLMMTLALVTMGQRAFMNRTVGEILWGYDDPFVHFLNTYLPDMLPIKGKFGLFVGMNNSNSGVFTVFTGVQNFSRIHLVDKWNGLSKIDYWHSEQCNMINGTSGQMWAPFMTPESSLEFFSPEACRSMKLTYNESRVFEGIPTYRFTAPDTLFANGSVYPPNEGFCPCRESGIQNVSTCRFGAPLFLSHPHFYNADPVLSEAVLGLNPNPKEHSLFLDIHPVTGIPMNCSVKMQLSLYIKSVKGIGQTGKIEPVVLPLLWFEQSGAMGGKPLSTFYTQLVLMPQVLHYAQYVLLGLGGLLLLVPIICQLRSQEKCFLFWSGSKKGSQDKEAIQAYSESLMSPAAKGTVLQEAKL

Only a part is listed here, and it is no random draw. Calls of active or inactive are those of the source.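 The calls were made as follows: active = mean replicate inhibition of at least 70% and a set share of replicates each scoring 70 or more; inconclusive = meets just one of the two criteria; inactive = fails both criteria.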

The assay has as its target Scavenger receptor class B member 1 (Mus musculus) (UniProt Q61009). Description: inhibitors of SR-BI mediated HDL lipid uptake, primary screen, ldlA[mSR-BI] cells, fluorescence, single point (AID 488896).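 Also: 0% = median of neutral control wells and 100% = median of positive control wells.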 The following applies: ldlA[mSR-BI] CHO cells, DiI-HDL uptake fluorescence, 3 h; at 12.5 µM; active compounds read high.
Turning to `CCOP(C)(=S)SCC(=O)NC(C)(CC)C(=O)O` (stereo not given), the inhibition is inactive: -0.118%.

Take `CP(=O)(Nc1ccc2c(c1)OCCO2)Oc1ccccc1` (stereo not given): the inhibition is inactive: -23.5%.

For the compound `Cc1ccccc1NP(C)(=O)Nc1ccccc1C`, the inhibition is inactive: -17.7%.

On to `COc1ccc(OP(C)(=O)Nc2ccc(Br)cc2)cc1` (stereo not given), for which the inhibition was inactive: -137%.

Take `CCN(CC)CC(O)COC(=O)C(O)(c1ccccc1)C1CCCCC1` (stereo not given): the inhibition was inactive: 0.453%.

Turning to `CCc1ccc(OP(C)(=O)Nc2cccnc2)cc1` (stereo not given), the inhibition is inactive: -12%.

Regarding `CP(=O)(Oc1ccccc1)N1CCOC1=O` (stereo not given), the inhibition was inactive: -47.3%.

For the compound `O=C(OCCCN1CCCC1)C(O)(c1ccccc1)C1CCCCC1` (stereo not given), the inhibition was inactive: -18%.

As for `COc1ccccc1OP(C)(=O)Nc1c(C)n(C)n(-c2ccccc2)c1=O` (stereo not given), the inhibition was inactive: -18.3%.

In the case of `CP(=O)(Nc1ccc(Cl)cc1)Oc1ccc(F)cc1` (stereo not given), the inhibition is inactive: -2.18%.

As for `COc1ccccc1OP(C)(=O)Nc1ccccc1Br` (stereo not given), the inhibition was inactive: 21.9%.

As to `CC(C)(C)c1ccc(OP(C)(=O)O)cc1`, the inhibition is inactive: -23.2%.

Regarding `CN(C)C(=O)c1c([N+](=O)[O-])cc([N+](=O)[O-])cc1[N+](=O)[O-]`, the inhibition is inactive: -2.13%.

For the compound `CP(=O)(OC12CC3CC(CC(C3)C1)C2)OC12CC3CC(CC(C3)C1)C2`, the inhibition is inactive: -11.4%.

`CCOC(=O)c1ccc(NP(C)(=O)Oc2ccc(Cl)cc2)cc1` (stereo not given): the inhibition is inactive: -12.8%.

Consider `Cc1cc(C)cc(OP(C)(=O)Nc2cccc(C(F)(F)F)c2)c1` (stereo not given), for which the inhibition is inactive: 1.76%.

As for `O=C1C(O)=C([N+](=O)[O-])C(=O)C(O)=C1[N+](=O)[O-]`, the inhibition was inactive: -4.37%.

As to `COc1ccc(OP(C)(=O)Nc2ccccc2Br)cc1` (stereo not given), the inhibition is inactive: 16.4%.

For `COc1ccccc1OP(C)(=O)Nc1ccc(C)c(C)c1` (stereo not given), the inhibition is inactive: 28.4%.

As to `CCCCCCCCCCCCCCCC1C[N+](C)(C)CCOP(C)(=O)O1` (stereo not given), the inhibition is inactive: 15.4%.

Take `CP(=O)(Nc1ccc(Cl)cc1Cl)Oc1ccccc1` (stereo not given): the inhibition was inactive: 13%.

For `CP(=O)(OCCOc1ccccc1)OCCOc1ccccc1`, the inhibition was inactive: 17.3%.

Turning to `COc1ccccc1OP(C)(=O)Nc1ccc(Br)cc1` (stereo not given), the inhibition is inactive: 3.82%.

Turning to `CN(C)CCOC(=O)C(O)(c1ccccc1)C1CCCC1` (stereo not given), the inhibition was inactive: -30.6%.

Consider `COc1ccc(OP(C)(=O)Nc2ccccn2)cc1` (stereo not given), for which the inhibition is inactive: -20%.

Take `Cc1c(NP(C)(=O)Oc2ccc(C(C)C)cc2)c(=O)n(-c2ccccc2)n1C` (stereo not given): the inhibition was inactive: 6.12%.

Take `O=[N+]([O-])c1cc([N+](=O)[O-])c(Nc2ccccn2)c([N+](=O)[O-])c1`: the inhibition was inactive: 1.34%.

On to `CCc1ccc(OP(C)(=O)O)cc1`, for which the inhibition is inactive: -28.6%.

Take `COc1ccccc1OP(C)(=O)Nc1ccc(C)cc1C` (stereo not given): the inhibition is inactive: 16.1%.

`CP(=O)(Nc1ccccn1)Oc1ccccc1` (stereo not given): the inhibition is inactive: -8.89%.

The record behind these values is PubChem BioAssay AID488896 (Broad Institute, 2010).
